Wnt bcat act: Wnt/beta-catenin pathway activation; Wnt/beta-catenin reporter cell assay, activator, plate reader; activation, % at 9.35 µM; hit rate 1.2% among 300,000; AID 743398; in the data active means activation above about 30%, passing the limit was not always enough; inconclusive means no clear call, values can overlap the other calls;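 further: 0% = neutral control wells and 100% = positive control wells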
esBAF inh: blocks esBAF chromatin remodeling in mouse ES cells; Bmi1-luciferase knock-in reporter, 24 h; 100% = twice the neutral-well signal; reporter increase, % at 12.5 µM; hit rate 2% among 350,000; in the data active means activation above about 40%; inconclusive means no clear call, values can overlap the other calls;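 further: 0% = median of the plate's neutral control wells and 100% = double that signal; a rise in the Bmi1 reporter signal indicates esBAF inhibition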
UUG fidelity: yeast start codon fidelity modulation | S. cerevisiae UUG-firefly luciferase reporter, luminescence/redox ratio | activity score, % at 18.7 µM | 0.13% of 350,000 active | AID 602363;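 active means replicate mean at a twofold rise or more, about +100% in these data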;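 further: firefly luciferase made from a UUG start codon reports start codon fidelity; reporter light over untreated wells divided by growth signal over untreated wells; some hits fall short of that in this replicate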
miR122 inh: miR-122 inhibition in Huh7 cells | activation (reporter increase), % at 12.5 µM | hit rate 0.3% among 340,000 | AID 602342 | Huh7 miR-122 Renilla luciferase sensor, 48 h; neutral wells = 0, positive control = 100;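 active means mean replicate activation score at least 90 and every replicate individually at or above 90; inconclusive means only one of the two criteria met; inactive means neither criterion met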;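 further: higher luciferase means less miR-122 activity so hits act as miR-122 inhibitors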
MITF TRPM1 HTS: increases MITF-driven TRPM1 promoter luciferase signal; activation, % at 12.5 µM; SK-MEL-5 TRPM1-promoter luciferase, 24 h; % of positive control, neutral wells = 0; hit rate 0.75% among 300,000;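 active means mean activation of at least 80% with every replicate also reaching 80%; inconclusive means mean reaches 80% but some replicate falls short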;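 further: 0% = neutral control wells and 100% = parthenolide positive control wells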
PglD DTNB: blocks C. jejuni PglD acetyltransferase activity. purified PglD enzyme, DTNB colorimetric CoA detection. inhibition, % at 12.5 µM. hit rate 0.098% among 360,000. AID 602405; in the data active means inhibition above about 16%, passing the limit was not always enough; inconclusive means no clear call, values can overlap the other calls
* = called active by the depositor; ? = inconclusive; / = not tested or not shown; [ ] = another dose, or the depositor's remark. Shown are actives, neighbours in structure and some others; about 2.8% of the full set was active somewhere.

Key to letters: A = Wnt bcat act; B = esBAF inh; C = UUG fidelity; D = miR122 inh; E = MITF TRPM1 HTS; F = PglD DTNB
O=C1CN(c2ccccc2)C(=O)N1
  A: 1; B: /; C: -11; D: 4; E: /; F: -2

S=C1NC(c2ccccc2)=NCN1c1ccccc1
  A: 42*; B: 58*; C: 0; D: -7; E: /; F: 2

CC1CCCC(NC(=O)COC(=O)c2cc3ccccc3oc2=O)C1C (stereo not drawn)
  A: 18; B: 68*; C: 3; D: 4; E: 65; F: 0

O=C1NCC2=C1C(c1ccc(Br)cc1)Nc1ccccc1N2 (stereo not drawn)
  A: /; B: 58*; C: 3; D: -5; E: /; F: 4

COc1ccc(N(CC(=O)NC2CC3CCC2C3)S(=O)(=O)c2ccc(C)cc2)cc1Cl (stereo not drawn)
  A: 51*; B: /; C: /; D: /; E: /; F: /

C[C@@H]1CN([C@H](C)CO)C(=O)c2cc(NS(=O)(=O)c3ccc(Cl)cc3)ccc2O[C@@H](C)CCCCO[C@@H]1CN(C)C(=O)NC1CCCCC1
  A: /; B: 0; C: -1; D: 5[16.7 µM]; E: /; F: -2

Cc1ccc(N/C=C(/C#N)c2ccsc2)cc1C
  A: /; B: 62*; C: -17; D: /; E: 47; F: 9

Cc1ccc2c(COC(=O)c3ccccc3OC(F)F)cc(=O)oc2c1
  A: -2; B: 48*; C: -22; D: 0; E: 69; F: 0

Cc1ccc2oc(-c3ccccc3)nc2c1
  A: /; B: /; C: /; D: 3; E: 22; F: /

CCOc1cccc(-c2nc3cc(C)ccc3o2)c1
  A: /; B: 50*; C: 0; D: -3; E: 39; F: 0

Cc1cccc(-c2nc3cc([N+](=O)[O-])ccc3o2)c1
  A: 28; B: 57*; C: -9; D: -5; E: 91*; F: /

O=[N+]([O-])c1ccc2oc(C3CCCCC3)nc2c1
  A: 19; B: 44*; C: -2; D: 1; E: 79; F: 5

Cc1noc(C)c1S(=O)(=O)N(C)C[C@H]1Oc2c(cccc2N(C)C)C(=O)N([C@@H](C)CO)C[C@@H]1C
  A: /; B: -4; C: 0; D: 2[16.7 µM]; E: /; F: -4

COc1ccc(C2CC(c3ccccc3)=NN2C(=O)c2cccs2)cc1 (stereo not drawn)
  A: /; B: 47*; C: 2; D: /; E: 33; F: 0

CN(C(=O)CN1CCN(c2cnn(-c3ccccc3)c(=O)c2Cl)CC1)C1CCS(=O)(=O)C1 (stereo not drawn)
  A: 44*; B: 6; C: -5; D: -3; E: 1; F: 4

C[C@@H]1CCCCO[C@H](CN(C)S(C)(=O)=O)[C@@H](C)CN([C@H](C)CO)C(=O)c2cc(NC(=O)CCCN(C)C)ccc2O1
  A: /; B: 0; C: /; D: 4[16.7 µM]; E: /; F: /

O=C(C[C@H]1C=C[C@H](NC(=O)C2CCOCC2)[C@H](CO)O1)NCC1CCCCC1
  A: /; B: -2; C: -2; D: /; E: /; F: 1

CCCn1cnc2c(sc3nc4c(cc32)CSC(C)(C)C4)c1=O
  A: /; B: 70*; C: -2; D: 0; E: 57; F: 5

CC1(C)Cc2nc3sc4c(=O)n(Cc5ccccc5)cnc4c3cc2CS1
  A: -1; B: /; C: -4; D: 2; E: 1; F: 1

CCN1CCN(c2ccc(NC(=O)c3cccc(F)c3)cc2Cl)CC1
  A: 9; B: 33; C: -9; D: 7; E: 128*; F: /

O=C(Nc1ccc2c(c1)oc1ccccc12)c1ccc(Br)o1
  A: -2; B: 83*; C: -28; D: -2; E: 76; F: -1

O=C(Nc1ccc(N2CCOCC2)c(Cl)c1)c1ccc(F)cc1
  A: 16; B: ?; C: -14; D: 7; E: 122*; F: 3

O=C(Nc1ccc(N2CCCC2)cc1)c1ccc(Br)o1
  A: /; B: -4; C: -9; D: -2; E: 84*; F: 0

CNC[C@H]1OCCCC[C@@H](C)Oc2ccc(NC(=O)NC(C)C)cc2C(=O)N([C@H](C)CO)C[C@@H]1C
  A: /; B: /; C: /; D: 2[16.7 µM]; E: /; F: -1

CN1C(=O)c2cc(NS(=O)(=O)c3cccc(F)c3)ccc2OC[C@H]2O[C@H](CC(=O)O)CC[C@H]21
  A: /; B: -4; C: 31; D: 24[16.7 µM]; E: /; F: 4

Entries from the list above that contain a nitro group on carbon (2):
Key to letters: A = Wnt bcat act; B = esBAF inh; C = UUG fidelity; D = miR122 inh; E = MITF TRPM1 HTS; F = PglD DTNB
Cc1cccc(-c2nc3cc([N+](=O)[O-])ccc3o2)c1
  A: 28; B: 57*; C: -9; D: -5; E: 91*; F: /

O=[N+]([O-])c1ccc2oc(C3CCCCC3)nc2c1
  A: 19; B: 44*; C: -2; D: 1; E: 79; F: 5

Following part.
Key to letters: A = Wnt bcat act; B = esBAF inh; C = UUG fidelity; D = miR122 inh; E = MITF TRPM1 HTS; F = PglD DTNB
Cc1noc(C)c1NC(=O)N1C[C@@H](O)COC[C@H]2O[C@@H](CC(=O)NCC3CCCCC3)CC[C@@H]21
  A: /; B: 3; C: /; D: -2[16.7 µM]; E: /; F: 2

CCCN(C)C[C@H]1OCCCC[C@@H](C)Oc2ccc(NC(=O)Nc3ccc4c(c3)OCO4)cc2C(=O)N([C@H](C)CO)C[C@@H]1C
  A: /; B: -1; C: -1; D: 6[16.7 µM]; E: /; F: -1

O=C(Nc1ccc2c(c1)CCC2)c1ccc(Br)o1
  A: 42*; B: 47*; C: -4; D: -2; E: 32; F: 6

O=C(Nc1ccc(N2CCOCC2)c(Cl)c1)c1ccc(Br)o1
  A: 53*; B: 60*; C: -6; D: -5; E: 106*; F: -6

O=C(Nc1ccc(N2CCOCC2)c(Cl)c1)c1cc2ccccc2o1
  A: /; B: 64*; C: 2; D: /; E: 46; F: -3

O=C(Nc1ccccc1N1CCOCC1)c1cc2ccccc2o1
  A: 7; B: 17; C: -7; D: 3; E: 9; F: -6
